# Measured affinities in a library of Ab-14 heavy chain variants

Source: Engelhart et al. 2022 (doi:10.1038/s41597-022-01779-4), MIT Lincoln Laboratory and A-Alpha Bio; data file from the FLAb repository.

The target is the same throughout: PDVDLGDISGINAS, from the HR2 region of SARS-CoV-2 spike.

Parent scFv Ab-14: VH joined to VL by a 15-residue (Gly4Ser)3 linker. Changes lie in the heavy chain CDRs alone.
VH: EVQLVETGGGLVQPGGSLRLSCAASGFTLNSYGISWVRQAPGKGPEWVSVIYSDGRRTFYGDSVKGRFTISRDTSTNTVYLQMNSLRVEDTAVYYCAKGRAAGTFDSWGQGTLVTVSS
VL: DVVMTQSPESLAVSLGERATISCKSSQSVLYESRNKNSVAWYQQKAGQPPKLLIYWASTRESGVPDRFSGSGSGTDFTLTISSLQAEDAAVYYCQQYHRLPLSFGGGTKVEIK

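The parent was found by panning a naive human phage display library on the peptide. AAYL49 was designed without a model: most single CDR substitutions and a random sample of double and triple ones. In AlphaSeq, yeast of one mating type display the scFv and yeast of the other type display the target. The frequency of each diploid, read from paired DNA barcodes, reflects how well the two displayed proteins bind. A regression on co-assayed BCL2-family reference pairs converts the normalised counts of each replicate to an apparent Kd. There are three technical replicates.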

Changes read parent residue, position, new residue, counted from the first residue of the VH shown.
Values are log10 of the apparent Kd in nM; lower means stronger binding.
Averages over replicates are reported, and they cover detected replicates only.
A pair that was not seen in that replicate is written "ND"; this usually means weak binding, but a binder can also be missed.
Empty control strains, which show no peptide, gave a signal in 15% of pairings with library AAYL49; the median was 4.06 and 95% of these signals were weaker than 2.83. No background was subtracted. Also given: how often the same scFv was detected with the empty control strains, with their mean in brackets.
For reference, the parent read 0.65 as the reference entry and 4.11 (one replicate of three) as a member of this library.

changes,"replicates, log10 nM","mean, log10 nM",signal with controls
I34W+Y52F,5.17 / ND / ND,5.17,2/9 (3.67)
I51D+R56Q+T58K,ND / ND / ND,ND,0/9
N30Y+R57H,4.53 / 3.21 / ND,3.87,1/9 (4.45)
Y32R+T58R+A102V,ND / ND / ND,ND,1/9 (3.71)
S53P+D106E+S107V,ND / ND / 3.82,3.82,2/9 (4.03)
G33L+S63R+D106K,ND / ND / ND,ND,0/9
G33K+K65T+R100L,ND / 4.79 / ND,4.79,0/9
N30F+S35T+K65V,ND / ND / 3.86,3.86,1/9 (4.07)
G26D+T104E+S107Q,2.77 / ND / ND,2.77,2/9 (3.53)
Y32D+R56F+G99S,ND / ND / 3.67,3.67,2/9 (4.36)
S63H+F105V+S107R,1.66 / 3.94 / 2.63,2.74,0/9
G26S+N30W+D54A,ND / ND / ND,ND,0/9
D54K+G99S+F105H,ND / ND / 3.54,3.54,2/9 (4.62)
F27Q+D54L+D62Q,3.29 / ND / ND,3.29,0/9
G99S+G103C,ND / 4.32 / ND,4.32,1/9 (4.80)
T28L+T58D+R100H,2.78 / 2.71 / 3.06,2.85,6/9 (4.72)
I34W+G99H+T104R,4.48 / 4.45 / ND,4.46,2/9 (4.71)
Y32R+G33H+V64G,3.78 / ND / ND,3.78,2/9 (3.61)
F27C+S53P+D54F,ND / ND / ND,ND,3/9 (4.05)
F27N+G33Y+S63F,ND / ND / ND,ND,2/9 (3.48)
S53Y+T58I,ND / 4.99 / 4.20,4.60,5/9 (3.78)
V50S+S53Y+G103F,4.40 / ND / ND,4.40,0/9
F27M+R56Q+F59I,3.16 / 3.62 / 3.33,3.37,6/9 (4.18)
G33C+S35I+I51G,ND / ND / ND,ND,1/9 (3.14)
G26T+L29D+R57D,ND / 4.51 / ND,4.51,1/9 (4.08)
G26V+S35Y+K65P,ND / ND / ND,ND,1/9 (2.47)
L29F+I34D+G55P,5.82 / ND / ND,5.82,0/9
S31Y+G33L+S63M,4.76 / ND / 3.91,4.34,4/9 (4.38)
G26I+G99A+S107G,4.07 / ND / ND,4.07,3/9 (4.56)
N30M+Y32T+A102Q,5.36 / ND / 5.20,5.28,4/9 (4.57)
I34Q+Y52T+F59V,ND / 5.27 / 4.09,4.68,2/9 (4.06)
S35V+Y60M+S107N,ND / ND / ND,ND,0/9
G55C+F59A+F105V,ND / 4.70 / ND,4.70,3/9 (4.22)
R100P+F105M,ND / ND / ND,ND,2/9 (4.40)
G33D+R56N+A102Y,ND / 3.70 / ND,3.70,4/9 (4.37)
Y60V+K65Y+R100S,3.85 / 3.45 / 4.55,3.95,3/9 (4.26)
T28L+S31P+I51H,3.69 / ND / ND,3.69,1/9 (2.42)
I51G+A101S+A102H,4.25 / 3.26 / ND,3.76,4/9 (5.05)
L29W+G33S+F105L,4.60 / 4.35 / ND,4.47,7/9 (4.65)
L29A+D54H+R57Q,ND / ND / ND,ND,2/9 (3.31)
V64A+F105I,1.76 / 1.81 / 2.16,1.91,0/9

From the list, the first 5 with no signal in any replicate:

{"changes": "I51D+R56Q+T58K", "replicates, log10 nM": "ND / ND / ND", "mean, log10 nM": "ND", "signal with controls": "0/9"}
{"changes": "Y32R+T58R+A102V", "replicates, log10 nM": "ND / ND / ND", "mean, log10 nM": "ND", "signal with controls": "1/9 (3.71)"}
{"changes": "G33L+S63R+D106K", "replicates, log10 nM": "ND / ND / ND", "mean, log10 nM": "ND", "signal with controls": "0/9"}
{"changes": "G26S+N30W+D54A", "replicates, log10 nM": "ND / ND / ND", "mean, log10 nM": "ND", "signal with controls": "0/9"}
{"changes": "F27C+S53P+D54F", "replicates, log10 nM": "ND / ND / ND", "mean, log10 nM": "ND", "signal with controls": "3/9 (4.05)"}